ChEMBL document CHEMBL5360648, “Identification of 5-HT2 Serotonin Receptor Modulators through the Synthesis of a Diverse, Tropane- and Quinuclidine-alkaloid-Inspired Compound Library” (J Med Chem, 2023)
Active and inactive are the calls of the source. The rule behind the calls is not given here.

By UniProt entry, the sequences of proteins in these tests, tags left out. Where a name states a change or a piece, a line headed by the entry shows the natural chain unless it says otherwise.
UniProt P28335: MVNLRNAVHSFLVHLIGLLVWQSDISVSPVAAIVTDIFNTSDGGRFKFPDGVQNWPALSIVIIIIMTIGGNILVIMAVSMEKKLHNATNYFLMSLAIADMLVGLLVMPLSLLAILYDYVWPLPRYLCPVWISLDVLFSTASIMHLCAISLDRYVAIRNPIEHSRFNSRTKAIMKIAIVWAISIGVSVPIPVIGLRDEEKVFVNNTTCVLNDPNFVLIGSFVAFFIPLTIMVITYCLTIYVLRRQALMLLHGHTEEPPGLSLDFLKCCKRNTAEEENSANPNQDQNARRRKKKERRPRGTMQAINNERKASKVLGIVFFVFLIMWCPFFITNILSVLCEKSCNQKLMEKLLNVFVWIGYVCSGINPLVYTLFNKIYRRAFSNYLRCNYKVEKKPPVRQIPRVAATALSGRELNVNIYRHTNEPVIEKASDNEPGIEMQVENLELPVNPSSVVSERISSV
UniProt P28223, whole entry: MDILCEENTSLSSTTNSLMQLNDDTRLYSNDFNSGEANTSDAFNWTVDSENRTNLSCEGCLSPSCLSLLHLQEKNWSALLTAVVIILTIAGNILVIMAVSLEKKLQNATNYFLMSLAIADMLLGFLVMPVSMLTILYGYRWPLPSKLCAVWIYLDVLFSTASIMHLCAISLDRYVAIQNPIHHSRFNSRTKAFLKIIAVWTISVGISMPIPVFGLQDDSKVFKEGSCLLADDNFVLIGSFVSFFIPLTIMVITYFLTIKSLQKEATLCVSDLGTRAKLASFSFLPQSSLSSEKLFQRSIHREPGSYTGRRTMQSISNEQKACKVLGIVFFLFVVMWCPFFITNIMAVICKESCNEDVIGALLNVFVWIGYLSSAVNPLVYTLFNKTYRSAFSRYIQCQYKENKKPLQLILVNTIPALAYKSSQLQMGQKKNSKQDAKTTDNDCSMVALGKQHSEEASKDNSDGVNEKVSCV

Experiments:
[1] = molecular target: 5-hydroxytryptamine receptor 2C (Homo sapiens, UniProt P28335); assay: Agonist activity at 5-HT2C receptor in HEK293 cells assessed as calcium mobilisation by Fluo-4 dye based assay; format: functional, cell-based
[2] = molecular target: 5-hydroxytryptamine receptor 2A (Homo sapiens, UniProt P28223); assay: Agonist activity at 5-HT2A receptor in HEK293 cells assessed as calcium mobilisation by Fluo-4 dye based assay; format: functional, cell-based

| SMILES | Activity [1] | Activity [2] |
| --- | --- | --- |
| CN1C2CC[C@H]1c1c(nc3ccc(Cl)cc3c1-c1ccccc1F)C2 | inactive | inactive |
| CN1C2CC[C@H]1c1c(nc3ccccc3c1-c1ccccc1)C2 | inactive | inactive |
| Cc1c2c(nc3ccccc13)CC1CC[C@@H]2N1C | inactive | inactive |
| CN1C2CC[C@H]1c1c(nc3cccc(Cl)c3c1-c1ccccc1)C2 | inactive | inactive |
| CN1C2CC[C@H]1c1cc3ccc(F)cc3nc1C2 | inactive | inactive |
| CN1C2CC[C@H]1c1c(nc3cc(F)ccc3c1-c1ccccc1)C2 | inactive | inactive |
| COc1cc2cc3c(nc2cc1OC)CC1CC[C@@H]3N1C | inactive | inactive |
